scFv variants of Ab-14 (light chain) against a SARS-CoV-2 spike peptide

From the AlphaSeq antibody data of Li et al. 2023 (doi:10.1038/s41467-023-39022-2), copy in the FLAb collection.

Antigen: PDVDLGDISGINAS, a 14-residue peptide of the SARS-CoV-2 spike HR2 region.

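Phage display of a naive human antibody library on the peptide gave the parent. Designed CDR sequences, proposed from the first random library and measured here. Several design methods are mixed in this list. The assay is AlphaSeq: two haploid yeast populations carry antibody and antigen on their surface. Mating (16 h, 30 °C) was followed by selection of diploids and sequencing of their barcodes. Read counts were normalised to the haploid input and turned into Kd by a linear fit to BCL2-family pairs of known affinity, for each replicate. The assay was run in six technical replicates.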

Each scFv is VH, three GGGGS repeats, VL, as in the parent Ab-14, and differs from it in the CDRs of the light chain only.
VH: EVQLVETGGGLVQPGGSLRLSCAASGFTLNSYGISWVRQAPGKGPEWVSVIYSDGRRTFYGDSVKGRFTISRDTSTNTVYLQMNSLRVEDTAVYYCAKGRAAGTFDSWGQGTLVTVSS
VL: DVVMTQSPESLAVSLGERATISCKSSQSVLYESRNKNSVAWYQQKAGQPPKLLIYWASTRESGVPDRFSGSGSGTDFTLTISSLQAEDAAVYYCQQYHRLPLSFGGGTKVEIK

Sequences are complete VL domains.
Scale: log10 of Kd in nM, estimated from mating counts; low values are strong binders.
A pair that was not seen in that replicate is written "ND"; this usually means weak binding, but a binder can also be missed.

| VL | replicates, log10 nM | empty controls |
|---|---|---|
| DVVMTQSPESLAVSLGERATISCMISQLYNMGTFAINSVAWYQQKAGQPPKLLIYQASLRCNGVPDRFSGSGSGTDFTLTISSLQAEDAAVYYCQQYDRLPLAFGGGTKVEIK | ND ND 1.77 1.36 1.20 2.95 | 0 of 18 |
| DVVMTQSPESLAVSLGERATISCKSPQSELYESRNKNSVAWYQQKAGQPPKLLIYNASTRESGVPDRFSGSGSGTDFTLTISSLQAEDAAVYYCQQYHRLPLSFGGGTKVEIK | 0.23 0.20 0.24 0.12 -0.01 0.22 | 1 of 18 (2.53) |
| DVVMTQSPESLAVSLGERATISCKSSQSFLYESRNVNSVAWYQQKAGQPPKLLIYEASTRESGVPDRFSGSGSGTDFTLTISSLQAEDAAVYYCQQYHRLPLSFGGGTKVEIK | -0.08 -0.04 -0.24 -0.39 -0.31 -0.15 | 0 of 18 |
| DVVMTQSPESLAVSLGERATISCKLSQSDNYESRNKNSVAWYQQKAGQPPKLLIYHASCRCSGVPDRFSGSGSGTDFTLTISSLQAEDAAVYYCQQYHRLPLSFGGGTKVEIK | 0.88 0.75 0.85 0.68 0.68 0.72 | 1 of 18 (2.61) |
| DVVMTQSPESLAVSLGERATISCKLEQSCLYESRNKNSVAWYQQKAGQPPKLLIYNASTRLSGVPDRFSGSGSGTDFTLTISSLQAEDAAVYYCQQYHRLPLSFGGGTKVEIK | 0.22 0.07 -0.17 -0.08 -0.12 0.00 | 0 of 18 |
| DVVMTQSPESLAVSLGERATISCKSSQSELFESRNKNSVAWYQQKAGQPPKLLIYDASTRESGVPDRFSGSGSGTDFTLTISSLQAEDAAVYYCQQYHRLPLSFGGGTKVEIK | -0.08 -0.32 -0.44 -0.17 -0.29 -0.16 | 1 of 18 (2.11) |
| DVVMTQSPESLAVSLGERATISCKFEPSWLYESRNVNSVAWYQQKAGQPPKLLIYNASTRSQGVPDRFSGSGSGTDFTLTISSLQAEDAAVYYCQQYHRLPLSFGGGTKVEIK | -0.21 -0.21 -0.26 -0.17 -0.25 0.00 | 0 of 18 |

Continued, with the values leading:

| replicates, log10 nM | empty controls | VL |
|---|---|---|
| 0.44 -0.15 0.21 0.17 0.09 0.05 | 1 of 18 (2.08) | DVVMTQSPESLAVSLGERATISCKLSFGELYESRNKNSVAWYQQKAGQPPKLLIYEASCREEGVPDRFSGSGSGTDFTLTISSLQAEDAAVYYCQQYHRLPLSFGGGTKVEIK |
| -0.25 -0.43 -0.47 -0.59 -0.49 -0.36 | 0 of 18 | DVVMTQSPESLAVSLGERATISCKLQQSVLYESRNKNSVAWYQQKAGQPPKLLIYGASTREVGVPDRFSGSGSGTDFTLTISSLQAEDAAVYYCQQYHRLPLSFGGGTKVEIK |
| 0.14 0.16 0.00 -0.15 -0.05 0.09 | 1 of 18 (3.05) | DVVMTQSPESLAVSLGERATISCKLSCGVDYESRNKNSVAWYQQKAGQPPKLLIYGGSTRESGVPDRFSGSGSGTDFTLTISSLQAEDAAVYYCQQYHRLPLSFGGGTKVEIK |
| ND ND ND ND ND ND | 0 of 18 | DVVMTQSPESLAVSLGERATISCKLSNWYFDSYGNYQSVAWYQQKAGQPPKLLIYENEATSNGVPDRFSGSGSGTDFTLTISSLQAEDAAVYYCQQYSLLPLSFGGGTKVEIK |
| 0.20 -0.10 -0.19 -0.27 -0.23 0.15 | 1 of 18 (2.39) | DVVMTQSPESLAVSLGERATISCKLMYSAEYEQRNKNSVAWYQQKAGQPPKLLIYEASTRESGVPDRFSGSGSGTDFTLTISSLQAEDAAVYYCQQYHRLPLSFGGGTKVEIK |
| 0.10 -0.18 -0.30 0.08 -0.13 0.25 | 0 of 18 | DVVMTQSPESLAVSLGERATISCKLPQSVLYESRNKNSVAWYQQKAGQPPKLLIYEGSTRESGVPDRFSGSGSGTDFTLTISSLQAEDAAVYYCQQYHRLPLSFGGGTKVEIK |
| ND 2.17 1.13 ND ND 2.37 | 0 of 18 | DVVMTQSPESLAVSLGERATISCTISQMWFIESKNRNNVAWYQQKAGQPPKLLIYEMTTRENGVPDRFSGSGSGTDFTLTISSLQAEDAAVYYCQDYDRLPLSFGGGTKVEIK |

Top 2 of the variants detected in all replicates, tightest first:

VL	replicates, log10 nM	empty controls
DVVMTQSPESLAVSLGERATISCKLQQSVLYESRNKNSVAWYQQKAGQPPKLLIYGASTREVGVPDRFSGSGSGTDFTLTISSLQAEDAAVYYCQQYHRLPLSFGGGTKVEIK	-0.25 -0.43 -0.47 -0.59 -0.49 -0.36	0 of 18
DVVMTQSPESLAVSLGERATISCKSSQSELFESRNKNSVAWYQQKAGQPPKLLIYDASTRESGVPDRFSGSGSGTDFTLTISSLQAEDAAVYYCQQYHRLPLSFGGGTKVEIK	-0.08 -0.32 -0.44 -0.17 -0.29 -0.16	1 of 18 (2.11)

The parent sequence was in this pool as ten entries: three were never detected, three once, and four in most replicates, with averages from 0.34 to 2.37.
In the paper, a design with two or fewer of six values counts as a poor binder.
As a blank, each scFv also met three strains without target: over all light chain designs, 4% of these pairings were detected, typically at 2.64 and seldom below 1.59. The control count says in how many pairings with the empty strains this scFv gave a signal, with their mean in brackets.
Values of this round are not directly comparable with the first-round values of the same sequences.